Values of other authors in patent US20070231260A1, “Transporter-targeted methods of diagnosis and treatment” (priority 2005, published 2007).

System: cell lines over-expressing GLUT2
Details: vs cells not over-expressing GLUT2; Elsner et al. 2000; cited from earlier work

streptozotocin
fold greater sensitivity (cytotoxicity) of GLUT2 over-expressing cell lines: ~1000 fold
